Results published in patent publication US7238666B2, “Method of inhibiting fibrosis with a somatostatin agonist” (Societe de Conseils de Recherches et d'Applications …, priority 1996, dated 2007).

Amino acid sequences for entries named in this document (tags omitted). A change or cut given only in a name is not applied to a line headed by its entry.
UniProt P32745: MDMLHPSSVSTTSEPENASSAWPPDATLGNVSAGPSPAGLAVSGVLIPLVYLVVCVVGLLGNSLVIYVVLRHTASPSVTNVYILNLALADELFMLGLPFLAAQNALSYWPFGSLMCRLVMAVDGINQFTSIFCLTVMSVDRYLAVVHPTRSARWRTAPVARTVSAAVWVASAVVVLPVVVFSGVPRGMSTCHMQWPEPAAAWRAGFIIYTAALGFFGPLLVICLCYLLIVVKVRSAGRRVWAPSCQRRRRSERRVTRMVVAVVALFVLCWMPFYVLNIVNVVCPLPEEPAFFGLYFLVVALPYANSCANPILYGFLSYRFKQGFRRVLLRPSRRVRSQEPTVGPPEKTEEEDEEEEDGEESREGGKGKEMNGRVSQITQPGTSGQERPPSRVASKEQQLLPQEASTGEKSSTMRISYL
UniProt P30874: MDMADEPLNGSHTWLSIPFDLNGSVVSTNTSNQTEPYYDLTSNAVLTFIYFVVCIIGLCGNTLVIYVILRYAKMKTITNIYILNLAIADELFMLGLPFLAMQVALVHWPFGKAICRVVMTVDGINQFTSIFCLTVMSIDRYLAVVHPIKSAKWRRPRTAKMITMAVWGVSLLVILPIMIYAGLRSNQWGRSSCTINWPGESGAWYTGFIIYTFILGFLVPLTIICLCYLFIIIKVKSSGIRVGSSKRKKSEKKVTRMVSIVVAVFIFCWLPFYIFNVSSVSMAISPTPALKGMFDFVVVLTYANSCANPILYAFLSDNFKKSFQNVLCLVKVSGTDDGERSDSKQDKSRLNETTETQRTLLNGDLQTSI

How the values were obtained:
human SSTR-3 = human SSTR-3 (Homo sapiens, UniProt P32745); assay: Somatostatin receptor binding assay, [125I-Tyr11]somatostatin-14, membranes of transfected CHO-K1 cells; conditions: read-out: Ki hSSTR-3
human SSTR-2 = human SSTR-2 (Homo sapiens, UniProt P30874); assay: as above; conditions: read-out: Ki hSSTR-2

Ki (human SSTR-3) | Ki (human SSTR-2) | Structure (SMILES)
2150 nM |  | CC[C@@H]1NC(=O)[C@H](CCCCN)NC(=O)[C@@H](Cc2c[nH]c3ccccc23)NC(=O)[C@H](Cc2ccc(O)cc2)NC(=O)[C@@H](NC(=O)[C@@H](Cc2ccccc2)NC(=O)CN2CCN(CCO)CC2)CSSC[C@@H](C(=O)N[C@H](C(N)=O)[C@@H](C)O)NC1=O [BIM-23190]
 | 0.09 nM | CC[C@@H]1NC(=O)[C@H](CCCCN)NC(=O)[C@@H](Cc2c[nH]c3ccccc23)NC(=O)[C@H](Cc2ccc(O)cc2)NC(=O)[C@@H](NC(=O)[C@@H](Cc2ccccc2)NS(=O)(=O)CCN2CCN(CCO)CC2)CSSC[C@@H](C(=O)N[C@H](C(N)=O)[C@@H](C)O)NC1=O [BIM-23197]
